The term inhibition denotes the change of the read-out against control, counted positive when it falls.

Protein sequences, listed by entry. Tags and fused reporters are not part of them.
UniProt P51684, whole entry: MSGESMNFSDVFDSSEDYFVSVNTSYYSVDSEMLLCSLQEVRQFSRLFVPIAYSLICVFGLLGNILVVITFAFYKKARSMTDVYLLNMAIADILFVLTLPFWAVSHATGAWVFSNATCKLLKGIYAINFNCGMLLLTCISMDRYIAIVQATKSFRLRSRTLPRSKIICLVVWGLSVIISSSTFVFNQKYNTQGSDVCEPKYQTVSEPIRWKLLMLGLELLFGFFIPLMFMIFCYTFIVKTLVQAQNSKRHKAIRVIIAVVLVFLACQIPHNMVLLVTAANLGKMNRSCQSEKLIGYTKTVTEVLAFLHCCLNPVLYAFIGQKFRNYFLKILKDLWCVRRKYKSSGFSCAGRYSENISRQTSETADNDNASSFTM

Each structure is given as a SMILES string. The entries are a selection whose mix differs from that of the whole data set. The source made the active and inactive calls.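 How the source made its calls: active means compounds whose inhibition of the agonist-driven luminescence signal at 20 µM reaches about 50% (limit read from the data); inactive means the rest.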

In PubChem BioAssay AID493098 (Sanford-Burnham Center for Chemical Genomics, 2011) one finds inhibition data, which are given here for 75 compounds.

The test concerns the target C-C chemokine receptor type 6 (Homo sapiens) (UniProt P51684). As to the kind of experiment: blockers of CCL20-driven beta-arrestin recruitment to CCR6 – cell-based, CHO-K1, luminescence, uHTS, primary screen (AID 493098).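 Further: cells stimulated with CCL20 at 14 nM final; plate controls were DMSO with CCL20 for no effect and DMSO without agonist for full effect.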 The note with it: CHO-K1 CCR6 PathHunter beta-arrestin, CCL20-stimulated, at 20 µM, stronger effect = higher value. A general note: Activated receptors often draw arrestin, which recruitment assays turn into a signal.
As to `N#Cc1ccc(C(=O)NCC2(N3CCCCC3)CCCCC2)cc1`, the inhibition was inactive: 5.45%. In the case of `CC(C)(C)OC(=O)N1CCC(N(C(=O)c2ccccc2)c2ccc(Cl)cc2)CC1`, the inhibition was inactive: 3.18%.

Turning to `CN(C)C1(CNC(=O)c2cccc(C#N)c2)CCCCC1`, the inhibition was inactive: -0.15%. The same measure for `c1ccc(CN2CCC(Nc3ccccc3)CC2)cc1`: inactive: 16.1%. `Cc1cc(N(CCCl)CCCl)ccc1C=O`: the inhibition is inactive: 2.02%. On to `CCCN1CCC(Nc2cc(OC)cc(OC)c2)CC1`, for which the inhibition was inactive: -2.97%.

`COc1cc(C(=O)NCC2(N3CCOCC3)CCCCC2)cc(OC)c1C`: the inhibition was inactive: 12.1%. Take `O=C(NCC1(N2CCOCC2)CCCCC1)c1cc(Br)ccc1Cl`: the inhibition is inactive: 14.1%. Turning to `COc1ccc(C(=O)NCC2(N3CCOCC3)CCCCC2)cc1OC`, the inhibition was inactive: 23.6%. `CCOC(=O)N1CCC(Nc2ccc(C)cc2)CC1`: the inhibition was inactive: 5.33%. With `N/C(=N\O)c1c(N)no[n+]1[O-]`, the inhibition was inactive: 23%. Consider `CCc1cc(C(=O)NCC2(N3CCCCC3)CCCCC2)sc1C`, for which the inhibition is inactive: 17.5%. With `O=C(OC1CN2CCC1CC2)C1c2ccccc2C=Cc2ccccc21` (stereo not given), the inhibition is inactive: 2.32%. Take `CCOc1ncccc1C(=O)NCC1(N2CCOCC2)CCCCC1`: the inhibition is inactive: -7.69%. In the case of `CN1CCC(Nc2ccc(F)c(Cl)c2)CC1`, the inhibition was inactive: -3.18%. With `CC(C)(C)OC(=O)N1CCC(Nc2ccccc2)CC1`, the inhibition was inactive: 4.94%. The figure for `O=C(O)C1(Nc2ccccc2)CCN(Cc2ccccc2)CC1` is inactive: 0.48%.

On to `CCCOc1ccc(C(=O)NCC2(N(C)C)CCCCC2)cc1`, for which the inhibition is inactive: 12.5%. Turning to `COc1cc(OC)cc(C(=O)NCC2(N3CCOCC3)CCCCC2)c1`, the inhibition was inactive: -4.22%.

Regarding `COc1cccc(C(=O)N(c2cc(C)cc(C)c2)C2CCN(C(=O)OC(C)(C)C)CC2)c1`, the inhibition is inactive: 10.9%. Take `CCC(CO)(C(=O)OC1CN2CCC1CC2)c1ccccc1` (stereo not given): the inhibition is inactive: 0.84%. Take `CN1CCC(Nc2ccc(Cl)cc2)CC1`: the inhibition is inactive: 8.91%.

Turning to `CC(=O)N(c1ccccc1)C1CCNCC1`, the inhibition is inactive: 5.79%. Consider `COc1cc(OC)cc(C(=O)NCC2(N3CCCCC3)CCCCC2)c1`, for which the inhibition is inactive: 7.6%. On to `Cc1ccc(C(=O)NCC2(N3CCCCC3)CCCCC2)o1`, for which the inhibition is inactive: 5.31%.

In the case of `Fc1ccccc1NC1CCN(Cc2ccccc2)CC1`, the inhibition was inactive: 12.6%. Turning to `Cc1ccc(NC2(C#N)CCN(Cc3ccccc3)CC2)cc1`, the inhibition is inactive: 13.3%. For `Cc1ccccc1NC1(C#N)CCN(Cc2ccccc2)CC1`, the inhibition is inactive: 4.38%. Regarding `CCN1CCC(Nc2cccc(F)c2)CC1`, the inhibition is inactive: 14.9%. The same measure for `O=C(NCC1(N2CCCCC2)CCCCC1)c1ccco1`: inactive: 3.87%; for `CN(C)c1ccc(C(=O)NCC2(N3CCCCC3)CCCCC2)cc1`: inactive: 10.3%. As for `Cn1c(=O)[nH]cc(N(CCCl)CCCl)c1=O`, the inhibition was inactive: 7.5%.

As for `O=C1CCN(Cc2ccccc2)CC1`, the inhibition is inactive: -10%. `CCOc1ccc(C)cc1CN(CCCl)CCCl`: the inhibition was inactive: 15.7%. In the case of `O=P1(N(CCCl)CCCl)SCCCS1`, the inhibition was inactive: 10.1%. Consider `CCCCOc1ccc(C(=O)NCC2(N3CCOCC3)CCCCC2)cc1`, for which the inhibition is inactive: 7.26%.

Turning to `O=C(NCC1(N2CCCCC2)CCCCC1)c1ccc(F)cc1`, the inhibition was inactive: 9.19%. `COc1ccc(NC2CCN(CCc3ccccc3)CC2)c(OC)c1`: the inhibition is inactive: 0.96%. As to `CCOC(=O)N1CCC(Nc2ccc(F)cc2)CC1`, the inhibition is inactive: 11.6%. In the case of `CCOC(=O)N1CCC(Nc2cccc(C)c2)CC1`, the inhibition was inactive: 15.3%.

Take `COc1cc(C(=O)NCC2(N(C)C)CCCCC2)ccc1OC(F)F`: the inhibition was inactive: 0.93%. As to `COc1ccc(C(=O)NCC2(N3CCCCC3)CCCCC2)cc1`, the inhibition was inactive: -9.21%. As for `CC(C)(C)OC(=O)N1CCC(N(C(=O)c2ccccc2)c2ccc(F)cc2)CC1`, the inhibition was inactive: 8.35%. The same measure for `COc1ccc(C(=O)NCC2(N3CCCCC3)CCCCC2)c(OC)c1OC`: inactive: 16.6%; for `O=C(NCC1(N2CCCCC2)CCCCC1)c1ccc(=O)[nH]c1`: inactive: 0.47%. Turning to `O=C(NCC1(N2CCCCC2)CCCCC1)c1cccs1`, the inhibition was inactive: 10.3%.

With `CSc1ccccc1C(=O)NCC1(N2CCCCC2)CCCCC1`, the inhibition is inactive: 10.3%. Turning to `Cc1cccc(NC2(C#N)CCN(Cc3ccccc3)CC2)c1`, the inhibition was inactive: 11%. On to `O=C(NCC1(N2CCCCC2)CCCCC1)c1ccc(Cl)nc1`, for which the inhibition is inactive: 2.82%. On to `Cc1cc(C)cc(N(C(=O)c2ccccc2)C2CCN(C(=O)OC(C)(C)C)CC2)c1`, for which the inhibition is inactive: 16.6%.

On to `O=C(NCC1(N2CCOCC2)CCCCC1)c1cc2ccccc2o1`, for which the inhibition was inactive: 10%. For `O=C(NCC1(N2CCCCC2)CCCCC1)c1ccc(Cl)s1`, the inhibition was inactive: 15.2%. Turning to `N#CC1(Nc2ccccc2)CCN(Cc2ccccc2)CC1`, the inhibition was inactive: -13%. Take `O=C(OC1CN2CCC1CC2)C1c2ccccc2Oc2ccccc21` (stereo not given): the inhibition is inactive: -3.53%. As to `COc1ccc(Cl)cc1C(=O)NCC1(N2CCOCC2)CCCCC1`, the inhibition is inactive: 11.8%. Turning to `CCOC(=O)N1CCC(Nc2ccc(OC)cc2)CC1`, the inhibition was inactive: 8.09%. Take `CC(C)c1ccc(NC2CCN(C(=O)OC(C)(C)C)CC2)cc1`: the inhibition was inactive: 11%. Take `COc1ccc(CN(CCCl)CCCl)cc1Cl`: the inhibition is inactive: -12.4%.

For `CN(C)c1cccc(C(=O)NCC2(N3CCCCC3)CCCCC2)c1`, the inhibition is inactive: 7.77%.

With `COc1cc(OC)c(C(=O)NCC2(N(C)C)CCCCC2)cc1OC`, the inhibition is inactive: 7.23%. For the compound `O=C(NCC1(N2CCOCC2)CCCCC1)c1cc(F)c(F)cc1Cl`, the inhibition was inactive: 5.25%.

Take `CN1CCC(Nc2cccc(F)c2)CC1`: the inhibition was inactive: 3.91%. Turning to `O=C(NCC1(N2CCCCC2)CCCCC1)c1cncc(Br)c1`, the inhibition is inactive: 7.17%. The figure for `CCCOc1ccc(C(=O)NCC2(N(C)C)CCCCC2)cc1OC` is inactive: -0.15%.

As for `O=C(NCC1(N2CCCCC2)CCCCC1)c1ccc(OC(F)F)cc1`, the inhibition was inactive: 14.7%.

Consider `CCN1CCC(Nc2ccc(Cl)cc2)CC1`, for which the inhibition is inactive: -0.78%. As to `N#CC1(Nc2ccccc2)CCN(CCc2ccccc2)CC1`, the inhibition is inactive: -4.94%.

In the case of `O=C(NCC1(N2CCCCC2)CCCCC1)c1cccc([N+](=O)[O-])c1`, the inhibition was inactive: -1.28%. For `CSc1ccc(C(=O)NCC2(N3CCOCC3)CCCCC2)cc1`, the inhibition is inactive: 5.84%. Regarding `O=C(NCC1(N2CCCCC2)CCCCC1)c1cccc(C(F)(F)F)c1`, the inhibition was inactive: 4.75%. Consider `COc1cc(C(=O)NCC2(N3CCCCC3)CCCCC2)ccc1OC(F)F`, for which the inhibition was inactive: 2.08%. In the case of `O=C(NCC1(N2CCOCC2)CCCCC1)c1cc(=O)[nH]c2ccccc12`, the inhibition is inactive: 16.2%. As to `CN1CCN(CCOC(=O)C(O)(c2ccccc2)c2ccccc2)CC1`, the inhibition is inactive: 0.88%. In the case of `CC(C)c1ccc(C(=O)NCC2(N3CCOCC3)CCCCC2)cc1`, the inhibition is inactive: 4.37%. The figure for `COc1ccc(NC2CCN(C(=O)OC(C)(C)C)CC2)cc1` is inactive: 16.1%.
